Laboratory results reported in patent US20230192644A1, “PIPERIDINE-2,6-DIONES AS SMALL MOLECULE DEGRADERS OF HELIOS AND METHODS OF USE” (DANA-FARBER CANCER INSTITUTE, INC., priority 2020, published 2023).

Amino acid sequences for entries named in this document (tags omitted). Residues count along the entry.
UniProt Q13422, 83-213 isoform 7 limits assumed: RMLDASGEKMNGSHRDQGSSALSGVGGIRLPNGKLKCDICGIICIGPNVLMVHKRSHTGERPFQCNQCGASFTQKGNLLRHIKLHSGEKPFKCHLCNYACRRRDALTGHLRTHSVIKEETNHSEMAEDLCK
UniProt Q96SW2, whole entry partner: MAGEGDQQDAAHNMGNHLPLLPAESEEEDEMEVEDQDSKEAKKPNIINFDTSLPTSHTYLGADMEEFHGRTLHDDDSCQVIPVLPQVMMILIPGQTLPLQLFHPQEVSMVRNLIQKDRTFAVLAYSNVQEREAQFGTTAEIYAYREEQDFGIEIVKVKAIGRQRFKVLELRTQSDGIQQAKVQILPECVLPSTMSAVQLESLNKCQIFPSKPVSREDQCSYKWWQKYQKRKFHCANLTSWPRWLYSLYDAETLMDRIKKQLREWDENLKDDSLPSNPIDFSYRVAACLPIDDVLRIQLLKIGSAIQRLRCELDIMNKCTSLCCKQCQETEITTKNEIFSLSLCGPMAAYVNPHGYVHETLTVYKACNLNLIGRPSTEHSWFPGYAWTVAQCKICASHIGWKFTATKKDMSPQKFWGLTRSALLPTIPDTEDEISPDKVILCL
UniProt Q16531, whole entry partner: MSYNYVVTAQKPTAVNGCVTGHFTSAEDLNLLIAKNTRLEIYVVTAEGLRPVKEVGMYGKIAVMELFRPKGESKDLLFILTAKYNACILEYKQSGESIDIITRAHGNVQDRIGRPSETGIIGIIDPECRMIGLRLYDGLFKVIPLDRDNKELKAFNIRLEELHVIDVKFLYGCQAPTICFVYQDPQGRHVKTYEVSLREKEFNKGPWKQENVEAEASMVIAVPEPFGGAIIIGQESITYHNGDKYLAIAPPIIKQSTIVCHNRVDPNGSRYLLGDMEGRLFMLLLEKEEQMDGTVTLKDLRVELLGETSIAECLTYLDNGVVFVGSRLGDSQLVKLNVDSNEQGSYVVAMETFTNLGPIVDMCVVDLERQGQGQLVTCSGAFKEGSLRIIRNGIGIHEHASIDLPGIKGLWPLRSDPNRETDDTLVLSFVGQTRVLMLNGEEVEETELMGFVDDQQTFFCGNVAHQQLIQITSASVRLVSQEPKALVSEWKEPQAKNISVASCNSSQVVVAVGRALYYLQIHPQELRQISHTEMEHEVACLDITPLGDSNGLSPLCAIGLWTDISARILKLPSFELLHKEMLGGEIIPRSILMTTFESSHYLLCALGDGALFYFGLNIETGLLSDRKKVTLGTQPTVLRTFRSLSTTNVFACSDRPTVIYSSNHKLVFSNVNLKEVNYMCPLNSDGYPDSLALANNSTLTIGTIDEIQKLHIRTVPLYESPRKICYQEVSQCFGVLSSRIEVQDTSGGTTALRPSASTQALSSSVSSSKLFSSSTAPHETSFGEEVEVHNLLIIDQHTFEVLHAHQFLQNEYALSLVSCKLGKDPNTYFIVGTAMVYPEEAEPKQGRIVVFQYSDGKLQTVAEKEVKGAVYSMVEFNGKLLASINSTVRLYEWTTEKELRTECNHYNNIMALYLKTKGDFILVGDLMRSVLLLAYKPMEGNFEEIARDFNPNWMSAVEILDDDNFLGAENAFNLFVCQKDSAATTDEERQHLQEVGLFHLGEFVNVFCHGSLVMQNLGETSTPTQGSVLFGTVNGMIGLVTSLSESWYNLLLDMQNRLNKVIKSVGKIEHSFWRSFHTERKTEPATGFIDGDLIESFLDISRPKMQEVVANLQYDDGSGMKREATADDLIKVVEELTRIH

What was measured:
IKZF2 = test: GFP-IKZF2 cellular degradation assay (eGFP fusion/mCherry reporter, Flip-In 293 cells); details: read-out: GFP IKZF2 DC50; Flip-In 293 cells stably expressing IKZF2 GFP fusion with mCherry reporter, 5 h
Description: IKZF1A and IKZF2A were subcloned into mammalian pcDNA5/FRT Vector (Ampicillin and Hygromycin B resistant) modified to contain MCS-eGFP-P2A-mCherry. Stable cell lines expressing eGFP-protein fusion and mCherry reporter were generated using Flip-In 293 system. Plasmid (0.3 μg) and pOG44 (4.7 μg) DNA were preincubated in 100 μL of Opti-MEM™ I (Gibco™, Life Technologies™) media containing 0.05 mg/mL Lipofectamine™ 2000 (Invitrogen™) for 20 min and added to Flip-In 293 cells containing 1.9 mL of DMEM media (Gibco™, Life Technologies™) per well in a 6-well plate format (Falcon, 353046). […]
The assay plate was imaged immediately using an Acumen High Content Imager (TTP Labtech) with 488 nm and 561 nm lasers in […] per well format. The resulting images were analyzed using CellProfiler (Carpenter et al., Genome Biol. 2006, 7:R100). […] First, the red and green channels were aligned and cropped to target the middle of each well (to avoid analysis of heavily clumped cells at the edges), and a background illumination function was calculated for both red and green channels of each well individually and subtracted to correct for illumination variations across the 384-well plate from various sources of error. […] The fraction of GFP-positive cells/mCherry-positive cells in each well was then calculated, and the green and red images were rescaled for visualization. […]

IKZF1 = IKZF1 (Homo sapiens, UniProt Q13422); test: GFP-IKZF1 cellular degradation assay (eGFP fusion/mCherry reporter, Flip-In 293 cells); details: read-out: GFP IKZF1 DC50; Flip-In 293 cells stably expressing IKZF1 GFP fusion with mCherry reporter, 5 h

Row | Structure (SMILES) | DC50 (IKZF2) [nM] | DC50 (IKZF1) [nM]
1 | Cc1ccc(NC(=O)CC(C)(N)c2cccc(NC3=CC(=O)N(C4CCC(=O)NC4=O)C3=O)c2)cc1Cl (stereo not shown) | 24 | 4.4
2 | Cc1ccc(NC(=O)NC2(c3cccc(NC4=CC(=O)N(C5CCC(=O)NC5=O)C4=O)c3)COC2)cc1Cl (stereo not shown) | 1.7 | 0.9
